Laboratory results taken from PubChem BioAssay AID504444 (National Center for Advancing Translational Sciences (NCATS), 2011).
The entries are a selection whose mix differs from that of the whole data set. Inconclusive results are not listed. Active and inactive are the calls of the source. Calls follow the shape of the dose curve; as a rule, active = well fitted inhibition curve with a large enough effect; inconclusive = small, poorly fitted or top-dose-only effect, or effect the other way; inactive = flat fitted curve, though single readings scatter.

Experiment: Nrf2 qHTS screen for inhibitors; also: nearly all actives have a fitted effect of over 60% in size
Settings: A549 ARE-Fluc reporter, luciferase luminescence, 18-24 h; at 46 µM (top of the series)
% is scaled to controls: 0 for no effect and ±100 for the full control effect.

Structure (SMILES)	activity change, negative = inhibition
CCC(=O)N(c1ccccc1)C1(COC)CCN(CCc2cccs2)CC1	inactive: -0.0499%
CCC(=O)N(c1ccccc1)C1(COC)CCN(CCn2nnn(CC)c2=O)CC1	inactive: 6.45%
